# Values quoted from earlier work as cited in patent US12465608B2, “Osimertinib for use in the treatment of non-small cell lung cancer” (AstraZeneca AB, priority 2019, dated 2025).
# Legend:
# [1] = test system: patients with advanced mutation-positive EGFR (Ex19del or L858R) NSCLC; conditions: first-line therapy, FLAURA
# [2] = test system: patients with EGFR mutation-positive NSCLC; conditions: first line treatment
smiles,measurement,setting,value
COc1cc2ncnc(Nc3ccc(F)c(Cl)c3)c2cc1OCCCN1CCOCC1 [gefitinib],median progression free survival (PFS),[1],10.2 months
same,median PFS,[2],9.2 months
